Results as given in PMC9536293, “Targeting extracellular matrix remodeling sensitizes glioblastoma to ionizing radiation” (Neuro-Oncology Advances, 2022).

Assays:
913-GSCs [1] = assay: Invasion through a 3D decellularized brain matrix (invadopodia length); settings: 3D brain matrix
913-GSCs [2] = assay: Clonogenic (colony formation) assay with increasing radiation doses; settings: 0.15 μM, increasing IR doses
[3] = tested on: 913-GSCs intracranial tumors; assay: Orthotopic 913-GSC brain tumor survival study in athymic nude mice; type: in vivo, mouse
Method: Animal studies were performed in accordance with University of Miami institutional guidelines. Eight-week-old female nude mice (Charles River) were injected intracranially with luciferase-expressing 913-GSC neurospheres with or without shGFP and shMT1-MMP stable expression, into the right cerebral cortex at a depth of 3 mm. Tumor growth was monitored twice weekly and quantified using bioluminescent imaging (BLI). Signal intensity was measured as photon counts within a Region Of Interest (ROI). One day post inoculation, mice were equally distributed into groups of treatment so that each group contained mice with similar tumor burden, measured by BLI. Mice that received (R)-ND336, were given the drug subcutaneously 5 days prior, on the day of, and 5 days post radiation at 25mg/kg daily. The treatment was then continued thrice weekly for an additional two months. The radiation groups received one single 12 Gy dose (equivalent to a BED—Biologically Effective Dose—between 26 and 40 based on a a/b value for gliomas ranging from 5 to 10[20]), using an XRad 320 cabinet irradiator to focally irradiate the right brain hemisphere with lead shielding to protect all other sites. Animal appearance, behavior, and weight were monitored to evaluate tumor progression as per a University of Miami approved IACUC protocol.
To test (R)-ND336 efficacy in vivo, 7 × 10^4 913-GSCs were inoculated stereotactically into the brains of athymic nude mice. Tumor growth was monitored twice weekly by bioluminescent imaging (BLI). One day post inoculation, the mice were equally distributed into four groups of treatments so that each group contained mice with similar tumor burden. Mice were treated daily with 25 mg/kg (R)-ND336 s.c. for 5 days prior to a single dose of 12 Gy of X-rays[20]; and for an additional 5 days after irradiation in the IR+ (R)-ND336 group, while the (R)-ND336 only group received the drug regimen. We chose this regimen to ensure MT1-MMP inhibition at the time of irradiation and afterwards, during DNA repair.

913-GSCs [4] = assay: Invasion through a Matrigel/HA matrix (XCELLigence); settings: 0.30 µM
913-GSC and 821-GSCs = assay: Relative cell growth of GSCs; settings: 913- and 821-GSCs; 0.3uM; up to 4 days

With `NCc1ccc(Oc2ccc(S(=O)(=O)C[C@H]3CS3)cc2)cc1` the “invasion through brain matrix” value (913-GSCs [1]) was “reduce invasion”, the “sensitization to radiation (clonogenic survival)” value (913-GSCs [2]) was “capable of sensitizing 913-GSCs to several IR doses” and the “effect on median survival with radiation vs radiation alone” value ([3]; IR 12 Gy + drug 25 mg/kg s.c. vs IR only (77 days)) was “almost doubling the median survival”. The “Median OS” value ([3]; IR (single 12 Gy) + drug 25 mg/kg s.c., nude mice with 913-GSC brain tumors) was 148 days, the “effect on survival, drug alone” value ([3]; drug alone, 25 mg/kg s.c.) was “did not extend survival” and the “invasion through Matrigel/HA matrix” value (913-GSCs [4]) was “reduce invasion”. For the same compound, the cell growth (913-GSC and 821-GSCs) was “reduced”.
